From PMC7805210, “Study on suitable analysis method for HIV-1 non-catalytic integrase inhibitor” (Virology Journal, 2021)

Tested on: HIV-1 AD8 strain
Experiment: Antiviral activity test using the TZM-bl cell luciferase system

C[C@@H]1CCO[C@H]2Cn3cc(C(=O)NCc4ccc(F)cc4F)c(=O)c(O)c3C(=O)N12 [DTG, Dolutegravir]
SI value (CC50/EC50): > 31,250.00
